# Apparent affinities of Ab-91 variants for a coronavirus HR2 peptide

Reference: Engelhart et al. 2022, doi:10.1038/s41597-022-01779-4. File: FLAb, binding data.

Target: peptide PDVDLGDISGINAS, taken from heptad repeat 2 (HR2) of SARS-CoV-2 spike.

Parent: Ab-91, a human scFv built as VL, the linker GGGGSGGGGSGGGGS, VH. Only the CDRs of the heavy chain vary.
VL: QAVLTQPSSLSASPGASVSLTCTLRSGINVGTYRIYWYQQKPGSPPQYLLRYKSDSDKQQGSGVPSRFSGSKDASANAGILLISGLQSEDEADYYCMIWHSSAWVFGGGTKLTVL
VH: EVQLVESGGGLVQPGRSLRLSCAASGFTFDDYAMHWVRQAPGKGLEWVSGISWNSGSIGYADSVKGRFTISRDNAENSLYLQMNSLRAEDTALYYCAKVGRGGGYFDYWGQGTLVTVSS

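The library (AAYL51) carries one to three amino acid substitutions per variant, with no insertions or deletions. AlphaSeq pools MATa yeast showing the antibodies with MATalpha yeast showing the peptide. Pairs that bind mate more often; barcode pairs of the diploids are counted by sequencing. Read counts were normalised to the haploid input and turned into Kd by a linear fit to BCL2-family pairs of known affinity, for each replicate. Each pool was mated in three replicate cultures.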

Positions count from residue 1 of the parent VH; G59N puts N in place of G.
Values are apparent Kd, the geometric mean of the replicates that gave a signal; lower means stronger binding.
A pair that was not seen in any replicate is written "no signal"; this usually means weak binding, but a binder can also be missed.
Empty control strains, which show no peptide, gave a signal in 21% of pairings with library AAYL51; the median was 34 µM and 95% of these signals were weaker than 1.8 µM. No background was subtracted.

changes,Kd (apparent),seen in
G59N/K65G/D107W,no signal,0 of 3
F27A/G56K/D107T,7.8 µM,2 of 3
S52Q/G102M/Y108K,no signal,0 of 3
I51N/Y60C/F106H,no signal,0 of 3
H35L/G50V,81 µM,1 of 3
D30W/S52L/K65G,no signal,0 of 3
Y32H/A33R/H35P,no signal,0 of 3
G26Q/S55D/V64P,220 µM,2 of 3
T28L/A33L/G102T,390 µM,2 of 3
D62P/V64A/K65N,25 µM,1 of 3
H35G/I58D/Y108W,97 µM,3 of 3
Y60G/D62E/Y108D,no signal,0 of 3
F29W/W53D/V99T,48 µM,2 of 3
D31L/S63E/R101S,54 µM,2 of 3
I58A/S63Q,27 nM,3 of 3
G26Y/S55I/Y108F,450 µM,3 of 3
H35C/W53F/Y105H,22 µM,1 of 3
S57W/Y60A/Y105F,no signal,0 of 3
Y32E/A61I/D107C,37 µM,1 of 3
I58F/G102A,310 nM,3 of 3
T28Y/I51L/W53T,no signal,0 of 3
D31K/H35K/S55M,5.1 µM,1 of 3
D31E/S63I/D107Y,no signal,0 of 3
T28M/G104C/F106K,no signal,0 of 3
T28H/D30G/V99K,44 µM,1 of 3
D30N/W53N/F106G,6.8 µM,3 of 3
G26M/S52H/S57K,37 µM,2 of 3
G50N/I58N/G103R,180 µM,2 of 3
S63W/R101K/D107S,9.6 µM,1 of 3
I58R/R101T/D107L,6.6 nM,3 of 3
H35P/D107W,93 µM,2 of 3
M34N/N54Q/A61W,8.9 µM,1 of 3
G50F/S57K/V99Y,88 µM,2 of 3
F29E/K65I/G103K,no signal,0 of 3
I51S/G100M/F106K,29 µM,1 of 3
D30G/A33I/W53L,120 µM,2 of 3
G26P/V99Q/R101N,2.8 µM,2 of 3
S52L/S57M/D62M,no signal,0 of 3
T28M/G103C/Y108C,540 µM,2 of 3
S55A/D62R/K65P,340 µM,3 of 3
A33N/S52R/W53V,58 µM,1 of 3
H35K/D62M/K65M,56 µM,2 of 3
T28Q/A33R/N54F,no signal,0 of 3
D30S/I58F/V99Q,97 µM,1 of 3
Y32W/H35T/G100E,37 µM,2 of 3
G26I/D31N/S63D,no signal,0 of 3
D30Y/D62Q/R101H,30 nM,3 of 3
G50E/N54F/R101Y,1.0 µM,1 of 3
G56C/G59Q/K65F,no signal,0 of 3
F27I/K65N/G102W,no signal,0 of 3
D30G/A61G/V64C,810 nM,3 of 3
V64R/R101S/D107K,44 µM,1 of 3

A selection of 5 entries from above:

changes	Kd (apparent)	seen in
V64R/R101S/D107K	44 µM	1 of 3
T28Q/A33R/N54F	no signal	0 of 3
F29E/K65I/G103K	no signal	0 of 3
F27A/G56K/D107T	7.8 µM	2 of 3
D62P/V64A/K65N	25 µM	1 of 3